# The entries are a selection whose mix differs from that of the whole data set. Inconclusive results are not listed. Active and inactive are the calls of the source. Unless noted, calls come from the whole dose curve; as a rule, active = well fitted curve in the direction sought with a large enough effect; inconclusive = small, poorly fitted or top-dose-only effect, or another doubt; inactive = no such curve, though single readings can be large; an effect the other way counts as inactive or inconclusive.
# Protein sequences, listed by entry. Tags and fused reporters are not part of them.
# UniProt P51449, whole entry: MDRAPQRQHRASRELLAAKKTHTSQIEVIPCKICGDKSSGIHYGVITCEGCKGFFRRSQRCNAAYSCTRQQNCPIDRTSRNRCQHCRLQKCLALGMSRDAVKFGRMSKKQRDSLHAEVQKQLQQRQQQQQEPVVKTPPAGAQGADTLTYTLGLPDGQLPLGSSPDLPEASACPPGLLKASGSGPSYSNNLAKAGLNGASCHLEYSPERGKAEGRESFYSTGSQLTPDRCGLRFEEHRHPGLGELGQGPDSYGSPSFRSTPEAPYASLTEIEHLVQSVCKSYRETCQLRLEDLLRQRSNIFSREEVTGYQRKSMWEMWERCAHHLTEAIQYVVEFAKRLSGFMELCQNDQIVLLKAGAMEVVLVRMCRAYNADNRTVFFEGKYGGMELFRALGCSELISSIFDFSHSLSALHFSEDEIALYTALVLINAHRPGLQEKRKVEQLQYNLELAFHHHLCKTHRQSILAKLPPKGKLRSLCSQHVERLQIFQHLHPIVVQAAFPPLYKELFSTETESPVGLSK
# Key:
# [1] = Primary qHTS for inhibitors of nuclear receptor binding SET domain protein 2 (NSD2) in an isogenic RCH-ACV NSD2 p.E1099K mutant (9B) (AID 1645876); settings: RCH-ACV NSD2 E1099K (9B) viability, CellTiter-Glo, 72 h; note: nearly all actives have a fitted effect of over 70% in size
# [2] = Primary qHTS for inhibitors of nuclear receptor binding SET domain protein 2 (NSD2) in an RCH-ACV wild type WT cells (2C) (AID 1645877); settings: RCH-ACV (leukaemia line) NSD2 WT (2C) viability, CellTiter-Glo, 72 h; note: nearly all actives have a fitted effect of over 70% in size
# Excerpt: Assay Provider: Jonathan D. Licht, MD
# University of Florida College of Medicine, Gainesville, FL
# Mutations in epigenetic regulators are common in relapsed pediatric acute lymphoblastic leukemia (ALL). Here, we uncovered the mechanism underlying the relapse of ALL driven by an activating mutation of the NSD2 histone methyltransferase (p.E1099K). […] Correction of this mutation restored glucocorticoid sensitivity. The transcriptional response to glucocorticoids was blocked in NSD2 mutant cells due to depressed glucocorticoid receptor (GR) levels and the failure of glucocorticoids to autoactivate GR expression. […] Pre-treatment of NSD2 p.E1099K cell lines and PDX samples with PRC2 inhibitors reversed glucocorticoid resistance in vitro and in vivo.
# High-throughput drug screening of isogenic RCH-ACV cell lines was performed at the National Center for Advancing Translational Science (NCATS), National Institutes of Health as previously described (1). Briefly, isogenic RCH-ACV NSD2 p.E1099K mutant (9B) and WT cells (2C) were plated at 500 cells/well in a 1536-well plate with a 72-hour incubation with compounds prior to addition of CellTiter-Glo to assess cell viability. NCATS libraries screened include: NPC, MIPE 5.0, Kinase and NPACT. […]
# [3] = Cell Viability - N2a (AID 540); settings: N2a mouse neuroblastoma cell viability;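 note: cells exposed to compound for 40 h at 37 °C; nearly all actives have a fitted effect of over 45% in size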
# In short: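 In this qHTS cytotoxicity screen, ATP-dependent luciferase luminescence reports viable N2a cells after a 40 hr compound exposure in complete culture medium. Potencies are AC50 values from standard Hill equation fits.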
# [4] = MultiTox-Fluor Cytotoxicity Assay - LYMP1-002 - Dead Cells (AID 960); settings: LYMP1-002 lymphoblastoid cells, dead-cell protease fluorescence; note: nearly all actives have a fitted effect of over 60% in size
# In short: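 Concentration-dependent increases in membrane-leaked protease activity are quantified in LYMP1-002 cells after 16 hr treatment; values are normalized against DMSO and tetraoctylammonium bromide (15 uM) controls and AC50 derived by Hill modeling.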
# [5] = Cell Viability - LYMP1-003 - Assay at 40 hr (AID 964); settings: LYMP1-003 lymphoblastoid viability; note: nearly all actives have a fitted effect of over 60% in size
# In short: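 Acute toxicity is scored as a concentration-dependent loss of intracellular ATP in LYMP1-003 cells (2500/well, complete medium) after 40 hr at 37 C, measured by CellTiter-Glo luminescence; AC50 values derive from standard Hill modelling.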
# [6] = Cell Viability - LYMP2-011 (AID 969); settings: LYMP2-011 lymphoblastoid cells viability; note: nearly all actives have a fitted effect of over 60% in size
# In short: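 Cells seeded at 2500 per well rest 5 hr before compound addition, then incubate 24 hr at 37 C. CellTiter-Glo reagent is added for 30 min at room temperature before luminescence detection.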
# [7] = Cell Viability - LYMP2-013 (AID 970); settings: LYMP2-013 lymphoblastoid cells viability;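 note: cells exposed to compound for 24 h at 37 °C; nearly all actives have a fitted effect of over 55% in size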
# In short: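 In complete culture medium, human lymphoblastoid cells were dosed for 24 hr at 37 C, with tetraoctylammonium bromide (6.4pM to 92 uM) as positive control. Viability reflects luciferase-based ATP signal; AC50 derived from concentration-response curves.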
# [8] = Cell Viability - LYMP2-017 (AID 972); settings: LYMP2-017 lymphoblastoid cell viability; note: nearly all actives have a fitted effect of over 55% in size
# In short: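 In this qHTS format, lymphoblastoid cells in complete medium receive test compound for a day at 37 C before ATP content is quantified by luciferase luminescence. Reported AC50 figures come from standard Hill-equation curve fitting.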
# [9] = Cell Viability - LYMP2-019 (AID 973); settings: LYMP2-019 lymphoblastoid cell line viability;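 note: cells exposed to compound for 24 h at 37 °C; nearly all actives have a fitted effect of over 55% in size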
# In short: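 AC50 values come from Hill-equation modelling of qHTS concentration-response curves, where viability is measured as luciferase-based ATP luminescence in the lymphoblastoid line after 24 hr compound exposure in complete culture medium.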
# [10] = Cell Viability - LYMP2-023 (AID 975); settings: LYMP2-023 lymphoblastoid cell viability; note: nearly all actives have a fitted effect of over 55% in size
# In short: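 In this qHTS, ATP-based luciferase luminescence (CellTiter-Glo) is quantified in human lymphoblastoid cells after 24 hr compound treatment at 37 C; tetraoctylammonium bromide serves as positive control. Concentration-response curves are Hill-fitted to give AC50.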
# [11] = Cell Viability - LYMP2-025 (AID 976); settings: LYMP2-025 lymphoblastoid cell viability;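 note: cells exposed to compound for 24 h at 37 °C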
# In short: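 Luminescent ATP readout after 24 hr treatment of a human lymphoblastoid line (LYMP2-025, 2500 cells/well, 37 C). Reagent developed 30 min at room temperature; AC50 fitted with the Hill equation.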
# [12] = Cell Viability - LYMP2-002 (AID 977); settings: LYMP2-002 lymphoblastoid cell viability, qHTS;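 note: compound exposure lasted 24 h at 37 °C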
# In short: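 In this qHTS viability screen, 2500 human lymphoblastoid cells per well receive compound for 24 hr at 37 C, and luciferase-based ATP luminescence gives the viability signal. Tetraoctylammonium bromide serves as positive control.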
# [13] = Cell Viability - LYMP2-026 (AID 989); settings: LYMP2-026 lymphoblastoid cell viability, qHTS;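 note: cells exposed to compound for 24 h at 37 °C; nearly all actives have a fitted effect of over 50% in size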
# In short: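 Acute toxicity screen in complete culture medium, with 24 hr compound exposure at 37 C. Viability read as cellular ATP via luciferase reaction, with tetraoctylammonium bromide (6.4pM to 92 uM) as positive control.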
# [14] = Cell Viability - LYMP1-002 - Assay at 24 hr (AID 993); settings: LYMP1-002 lymphoblastoid cells viability
# In short: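 Viability was judged from intracellular ATP using a luciferase read-out, following a 24-hour compound incubation at 37 C of lymphoblastoid cells seeded at 2500 per well. Concentration-response data were fitted to the Hill equation for AC50.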
# [15] = qHTS assay for small molecule activators of the p53 signaling pathway (AID 651743; active = well fitted activation curve with a large enough effect in the signal ratio, not every such curve was filed as active; the % refers to the signal ratio); settings: HCT-116 p53RE-bla, beta-lactamase FRET ratio, 16 h
# In short: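 Here HCT-116 cells with an integrated p53-responsive beta-lactamase gene were incubated with compounds (16 hours, 37 C) after a 5-hour plating period; beta-lactamase activity was detected as fluorescence intensity via B/G FRET substrate.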
# [16] = target: Nuclear receptor ROR-gamma (Homo sapiens) (UniProt P51449); assay: qHTS assay for small molecule antagonists of the retinoid-related orphan receptor gamma (ROR-gamma) signaling pathway (AID 651802); settings: ROR-gamma antagonist cell reporter assay; note: nearly all actives have a fitted effect of over 60% in size
# [17] = qHTS assay for small molecule antagonists of the retinoid-related orphan receptor gamma (ROR-gamma) signaling pathway - cell viability counter screen (AID 720652; active = well fitted curve in the direction sought with a large enough effect in the repeat runs; an effect the other way counts as inactive or inconclusive;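 note: compound exposure lasted 16 hr before ATP read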); settings: RORgamma reporter cell line viability counter screen
# [18] = qHTS of pediatric cancer cell lines to identify multiple opportunities for drug repurposing: Primary screen for A673 cells (AID 1347092); settings: A673 Ewing sarcoma viability, CellTiter-Glo ATP luminescence, 48 h; note: nearly all actives have a fitted effect of over 45% in size
# In short: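 Titration-based qHTS on A673 cells: MIPE compounds spanned 11 points (0.78 nM to 46 µM final), NPC compounds 8 points (0.59 nM to 46 µM final). Viability after 48 h was measured by ATP luminescence.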
# [19] = qHTS of pediatric cancer cell lines to identify multiple opportunities for drug repurposing: Primary screen for SK-N-MC cells (AID 1347093); settings: SK-N-MC viability, CellTiter-Glo luminescence, 48 h
# [20] = qHTS of pediatric cancer cell lines to identify multiple opportunities for drug repurposing: Confirmatory screen for NB1643 cells (AID 1347109); settings: NB1643 neuroblastoma cell viability; note: nearly all actives have a fitted effect of over 45% in size
# In short: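 Cells (500-1,000/well) in growth media were settled 5 h at 37 degrees C, then given compounds for 48 h. Viability was read as CellTiter-Glo luminescence. Primary runs used MIPE at 11 points (0.78 nM-46 µM) and NPC at 8 points (0.59 nM-46 µM); follow-ups used 11 points.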
# [21] = qHTS of pediatric cancer cell lines to identify multiple opportunities for drug repurposing: Confirmatory screen for A673 cells (AID 1347110); settings: A673 Ewing sarcoma cell viability;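 note: cells exposed to compound for 48 h before the viability read; nearly all actives have a fitted effect of over 65% in size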
# In short: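 Forty-eight-hour viability assay. Follow-up compounds ran at 11-point dilutions; positive control bortezomib at 2.3 uM final, neutral control DMSO.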
# [22] = qHTS of pediatric cancer cell lines to identify multiple opportunities for drug repurposing: Confirmatory screen for DAOY cells (AID 1347114); settings: DAOY medulloblastoma cells viability, cytotoxicity qHTS; note: nearly all actives have a fitted effect of over 65% in size
# In short: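 Viability measured as metabolically active cells via CellTiter-Glo luminescence following 48 hours of compound exposure, 11-point dilutions in confirmatory testing. 500-1,000 cells/well plated 5 hours before dosing; controls were DMSO and 2.3 µM bortezomib.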
# [23] = qHTS of pediatric cancer cell lines to identify multiple opportunities for drug repurposing: Confirmatory screen for TC32 cells (AID 1347118); settings: TC32 Ewing sarcoma cells viability qHTS;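 note: cells exposed to compound for 48 h before the read; nearly all actives have a fitted effect of over 65% in size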
# In short: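 TC32 cells, 500-1,000/well in growth medium, compound-treated 48 h at 37 °C; viability from CellTiter-Glo luminescence. Primary screen: MIPE 11-point (0.78 nM–46 µM final), NPC 8-point (0.59 nM–46 µM final); confirmatory at 11-point dilutions.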
# [24] = Quantitative High-Throughput drug screen in 47 multiple myeloma cell lines against the NCATS MIPE library collection: EJM_DSMZ cell viability assay (AID 1918926; note: nearly all actives have a fitted effect of over 30% in size); settings: EJM myeloma cell viability, CellTiter-Glo ATP, 48 h
# In short: (§1)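 Myeloma cell lines, 500 cells per well, exposed to MIPE 4.0 library compounds for 48 h at 37C, 5% CO2. Viability from ATP by CellTiter-Glo luminescence; normalised to DMSO (100%) and media-only (0%) wells.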
# [25] = Quantitative High-Throughput drug screen in 47 multiple myeloma cell lines against the NCATS MIPE library collection: Karpas25_ECACC cell viability assay (AID 1918968; note: nearly all actives have a fitted effect of over 35% in size); settings: Karpas25 myeloma viability, CellTiter-Glo ATP, 48 h
# In short: as §1
# [26] = Quantitative High-Throughput drug screen in 47 multiple myeloma cell lines against the NCATS MIPE library collection: KMS20_JCRB cell viability assay (AID 1918973); settings: CellTiter-Glo ATP, 48 h; note: nearly all actives have a fitted effect of over 45% in size
# In short: as §1
# [27] = Quantitative High-Throughput drug screen in 47 multiple myeloma cell lines against the NCATS MIPE library collection: XG6_PLB cell viability assay (AID 1919865); settings: XG6 myeloma viability, CellTiter-Glo ATP luminescence, 48 h; note: nearly all actives have a fitted effect of over 40% in size
# In short: (§2)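 Readout: median RLU from CellTiter-Glo after 5 min at room temperature. Preceding step was 48 h drug treatment of 500 cells/well at 37 °C, 5% CO2, with DMSO-only and media-only control wells.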
# [28] = Quantitative High-Throughput drug screen in 47 multiple myeloma cell lines against the NCATS MIPE library collection: XG1_PLB cell viability assay (AID 1919866); settings: CellTiter-Glo ATP, 48 h; note: nearly all actives have a fitted effect of over 35% in size
# In short: as §2
# [29] = Quantitative High-Throughput drug screen in 47 multiple myeloma cell lines against the NCATS MIPE library collection: UTMC2_PLB cell viability assay (AID 1919868); settings: CellTiter-Glo ATP luminescence, 48 h; note: nearly all actives have a fitted effect of over 55% in size
# In short: as §2
# [30] = Quantitative High-Throughput drug screen in 47 multiple myeloma cell lines against the NCATS MIPE library collection: PCM6_Riken cell viability assay (AID 1919870); settings: CellTiter-Glo ATP, 48 h; note: nearly all actives have a fitted effect of over 30% in size
# In short: as §2
# CP201 = assay: qHTS profiling for inhibitors of Plasmodium falciparum proliferation (AID 504749); note: nearly all actives have a fitted effect of over 60% in size;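 for activity, negative = inhibition: 0% = DMSO vehicle and full inhibition = artemisinin control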; settings: P. falciparum in erythrocytes, SYBR Green DNA, 72 h; at 28.7 µM (top of the series)
# In short: (§3)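 Fluorescence of SYBR Green-bound parasite DNA, read at 485/535 nm, served as the growth measure. Infected erythrocytes were cultured with compound 72 h; artemisinin (0.29 uM) and DMSO wells defined the normalization range.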
# ICS = assay: as above; settings: P. falciparum in erythrocytes, SYBR Green DNA, 72 h
# In short: as §3
# P93_24 = assay: as above; settings: P. falciparum in erythrocytes, SYBR Green DNA, 72 h; at 28.7 µM (top of the series)
# In short: as §3
# TAB113 = assay: as above; settings: P. falciparum in erythrocytes, SYBR Green DNA, 72 h; at 28.7 µM (top of the series)
# In short: as §3
# [31] = Drug repurposing screens with cells derived from glioblastoma tumor samples (AID 1345199); settings: GBM patient neurospheres viability, ATP luminescence, 48 h; tumour line A; note: nearly all actives have a fitted effect of over 40% in size
# In short: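 Primary testing used CD133+ neurospheres from four GBM patients, seven concentrations, 48 h exposure and ATP-based viability; confirmation added three slower-growing patient lines.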
# Potency is the fitted concentration of half-maximal effect.
structure (smiles),measurement,setting,value
CCC(=O)N(c1ccccc1)C1(COC)CCN(CCc2cccs2)CC1,Potency,[1],active: 24.3 µM
same,Potency,[2],active: 27.3 µM
CN(CCCl)CCCl,Potency,[3],active: 15.8 µM
same,Potency,[4],active: 25.1 µM
same,Potency,[5],active: 25.1 µM
same,Potency,[6],active: 12.6 µM
same,Potency,[7],active: 15.8 µM
same,Potency,[8],active: 12.6 µM
same,Potency,[9],active: 15.8 µM
same,Potency,[10],active: 15.8 µM
same,Potency,[11],active: 15.8 µM
same,Potency,[12],active: 12.6 µM
same,Potency,[13],active: 12.6 µM
same,Potency,[14],active: 50.1 µM
same,Potency,[15],active: 12.6 µM
same,Potency,[16],active: 26.6 µM
same,Potency,[17],active: 11.9 µM
same,Potency,[18],active: 21.1 µM
same,Potency,[19],active: 26.6 µM
same,Potency,[20],active: 20.8 µM
same,Potency,[21],active: 11.7 µM
same,Potency,[22],active: 13.1 µM
same,Potency,[23],active: 11.7 µM
same,Potency,[24],active: 18.7 µM
same,Potency,[25],active: 18.7 µM
same,Potency,[26],active: 10.5 µM
same,Potency,[27],active: 10.5 µM
same,Potency,[28],active: 18.7 µM
same,Potency,[29],active: 5.26 µM
same,Potency,[30],active: 14.8 µM
same,"activity, negative = inhibition",CP201,inactive: 11.3%
same,Potency,ICS,active: 11.2 µM
same,"activity, negative = inhibition",P93_24,inactive: 2.59%
same,"activity, negative = inhibition",TAB113,inactive: -26.4%
same,Potency,[31],active: 25.1 µM
